Consider one substance from PMC11272584 (Nature Metabolism, 2024).

The subject of one assay is GIPR W90Lfs*17. Description: cAMP accumulation. The following applies: HEK293, Hill slope 1.0, mean of n = 5. Format: cell-based, human. In general terms: Cyclic AMP is a second messenger, typically raised through Gs and lowered through Gi signalling.
The target in a further assay is T1, GIPR G449A (Homo sapiens, UniProt P48546, G449A).
T1 sequence (P48546 22-466 G449A): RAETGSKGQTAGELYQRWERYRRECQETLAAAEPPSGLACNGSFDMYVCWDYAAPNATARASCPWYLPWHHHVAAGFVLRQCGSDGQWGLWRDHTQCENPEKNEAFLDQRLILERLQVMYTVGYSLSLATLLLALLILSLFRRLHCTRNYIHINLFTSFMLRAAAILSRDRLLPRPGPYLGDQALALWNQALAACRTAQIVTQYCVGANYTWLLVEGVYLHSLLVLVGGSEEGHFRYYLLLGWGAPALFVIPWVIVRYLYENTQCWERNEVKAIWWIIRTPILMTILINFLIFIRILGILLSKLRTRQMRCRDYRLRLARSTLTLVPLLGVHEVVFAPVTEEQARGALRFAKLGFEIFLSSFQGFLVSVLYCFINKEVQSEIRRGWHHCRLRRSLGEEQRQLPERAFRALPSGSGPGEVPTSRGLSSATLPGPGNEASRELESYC
The conditions noted are these: GIPR G449A (ICD), mean, n = 3, duplicate.

The target in assay [1] is T2, GIPR I299V (Homo sapiens, UniProt P48546, I299V).
T2 sequence (P48546 22-466 I299V): T1 sequence (P48546 22-466 G449A) with I278V, A428G
Description: cAMP accumulation. It counts as cell-based. Set-up: host or cells: HEK293.

Assay [2] has as its target T2, GIPR I299V. The following applies: HEK293A, 1 µM GIP minus vehicle, n = 4, P = 0.0305.
The target of another assay is T3, GIPR E461* (Homo sapiens, UniProt P48546).
T3 sequence (P48546 22-460 limits assumed): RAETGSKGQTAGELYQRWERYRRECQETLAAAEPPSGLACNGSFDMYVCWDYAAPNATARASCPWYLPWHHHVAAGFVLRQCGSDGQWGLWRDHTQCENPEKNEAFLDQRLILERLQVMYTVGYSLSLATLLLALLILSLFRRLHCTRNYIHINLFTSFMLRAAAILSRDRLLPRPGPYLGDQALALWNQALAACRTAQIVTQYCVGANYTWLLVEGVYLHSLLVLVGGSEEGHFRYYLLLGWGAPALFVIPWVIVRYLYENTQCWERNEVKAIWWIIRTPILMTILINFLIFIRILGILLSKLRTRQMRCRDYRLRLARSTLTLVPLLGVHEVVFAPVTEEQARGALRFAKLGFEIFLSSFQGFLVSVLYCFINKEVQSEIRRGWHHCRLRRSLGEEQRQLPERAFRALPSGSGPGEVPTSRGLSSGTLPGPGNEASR

A further assay has as its target T4, GIPR T25R (Homo sapiens, UniProt P48546, T25R).
T4 sequence (P48546 22-466 T25R): T1 sequence (P48546 22-466 G449A) with T4R, A428G
Description: Homologous competition binding. More on the design: host or cells: HEK293.

In another assay the target is T5, GIPR (Homo sapiens, UniProt P48546).
T5 construct: host or cells: parental HEK293A cells and β-arrestin 1/2 KO HEK293A cells, transient calcium phosphate transfection
Description: Homologous radioligand competition binding, parental HEK293A cells. The conditions noted are these: GIPR compared with GLP-1R; N = 3. On the technique in general: In a radioligand displacement assay an active substance lowers the binding of a labelled ligand.

The target in a further assay is T6, GIPR A185V (Homo sapiens, UniProt P48546, A185V).
T6 sequence (P48546 22-466 A185V): T1 sequence (P48546 22-466 G449A) with A164V, A428G
The following applies: GIPR A185V (2.62), mean, n = 5, duplicate.

Where a chain is given by its changes, count along the chain named.

Regarding “glucose-dependent insulinotropic polypeptide [GIP]”, the “logEC50 (cAMP)” value was -8.4 in the assay with GIPR W90Lfs*17 and -10.8 at GIPR I299V [1] (HEK293, Hill slope 1.0, mean of n = 3). The “logEC50 (Arrestin)” value is reported as -9.2 at GIPR G449A (Hill slope 1.0); -9.2 at GIPR E461* (GIPR E461* (ICD), Hill slope 1.0, mean, n = 3, duplicate); -9.0 on GIPR A185V (Hill slope 1.0). The “Arrestin (Emax)” value on GIPR G449A (normalized to WT GIPR) is on record as 53; at GIPR E461* (GIPR E461* (ICD), normalized to WT GIPR, mean, n = 3, duplicate), 60; at GIPR A185V (normalized to WT GIPR), 89. The “cAMP (Emax)” value at GIPR I299V [1] (HEK293, GIP(1–42) 1 pM–100 nM, 30 min 37 °C, mean of n = 3) is 118 % of WT GIPR activity. Further, the “Mean of ΔBRET” value on GIPR I299V [2] amounted to 0.0859. Also, the β-arrestin recruitment class entry on GIPR E461* (E461*) is given as “preserved β-arrestin recruitment”. The substance further yielded a Bmax at GIPR T25R of 25%. At GIPR, the “Receptor surface expression (Bmax)” value is listed as “to the same extent”.
